From US20130143965A1, “MICROBI[…] AND STABLE SOLUTIONS OF GAMMA-HYDRO[…] FOR THE TREATMENT OF NARCOLEPSY” (Jazz Pharmaceuticals, Inc., priority 1998, published 2013)

Assay: Solubility determination of calcium salt of gamma-hydroxybutyrate
Assay type: physicochemical
Experimental: • 1. Solubility determination: Little information is available about the solubility of this alternative salt of gamma-hydroxybutyrate and a determination of solubility was done in advance of efforts to prepare formulations for evaluation by stability and microbial challenge. Maximum solubility is evaluated for pH unadjusted solutions and within the pH range desired for this formulation (pH 6.0-8.0). If solubility is limited, the formulation will be changed to accommodate the solubility limitations. The preferred acidulent for this work is Malic acid. If acid is not compatible with the salt, then an alternative acid can be selected. • 2. Preparation: Method for preparation of alternative salt formulations: • a. The previously described method (Part A) is used for preparation of formulations of calcium gamma-hydroxybutyrate at the concentrations and specified pH determined by solubility experiments. • b. The final solutions were filtered through 10 μm filters and dispensed into 5 amber PET bottles with closures (provided by Orphan Medical, Inc.). Two bottles are used for microbial challenge studies and two bottles are placed on limited stability. The remaining bottles are retained for any additional studies at a future time: • 3. Testing: Formulations are tested as described above. • C. Reporting of Results: The results will be reported for the Stability and Microbial Challenge results in standard format as defined by the described Orphan Medical Development. Copies of HPLC chromatograms and any raw data from these studies will be provided with results. • D. Acceptance Criteria: Specific acceptance criteria for this study can be described analogous to those for sodium oxybate.

For “calcium gamma-hydroxybutyrate [calcium salt of gamma-hydroxybutyrate]”, the “Appearance of the final solution” value (500 mg/cc, pH 7.5, Malic acid as acidulant) was “slightly yellow in color”, the solubility (500 mg/cc, pH adjusted to 6.0 with Malic acid) was “limited” and the “pH of the solution at the limit of solubility” value (700 mg/cc, without pH adjustment) was 8.4. The “Maxium Solubility” value (pH 6.0, 25°) was 500 mg/cc, the “Maxium Solubility” value (pH 8.4 (unadjusted), 25°) was 700 mg/cc and the “absolute limit of solubility” value (without pH adjustment) was 700 mg/cc.
